Earlier results as cited in US10195284B2, “Compositions and methods for controlled localized delivery of bone forming therapeutic agents” (University of Rochester, priority 2013, dated 2019).

Conditions: mice, 20 mg/kg subcutaneous, cited from earlier work

Compound: C[C@@H]1CN(Cc2ccc(F)cc2)CCN1C(=O)COc1ccc(Cl)cc1NC(N)=O [BX471]
- peak serum concentration (30 minutes following injection): 9 µM
- reduction of serum concentration after 2 hours: more than 20 fold
- serum concentration after 2 hours: 400 nM
